Among the data in ChEMBL document CHEMBL1126113, “Para-substituted Phe3 deltorphin analogues: enhanced selectivity of halogenated derivatives for delta opioid receptor sites” (J Med Chem, 1992) are Ki values, retold here.

Amino acid sequences for entries named in this document (tags omitted).
UniProt P33535, whole entry: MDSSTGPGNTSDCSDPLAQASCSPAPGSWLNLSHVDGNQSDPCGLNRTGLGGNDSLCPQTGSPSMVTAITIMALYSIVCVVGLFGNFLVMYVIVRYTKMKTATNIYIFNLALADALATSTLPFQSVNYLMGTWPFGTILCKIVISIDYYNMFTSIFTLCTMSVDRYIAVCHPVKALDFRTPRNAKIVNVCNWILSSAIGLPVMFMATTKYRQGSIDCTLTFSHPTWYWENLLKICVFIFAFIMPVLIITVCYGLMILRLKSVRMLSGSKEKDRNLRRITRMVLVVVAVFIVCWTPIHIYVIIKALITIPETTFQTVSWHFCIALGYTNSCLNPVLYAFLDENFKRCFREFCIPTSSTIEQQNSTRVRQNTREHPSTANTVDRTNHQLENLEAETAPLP

This test concerns the target Mu-type opioid receptor (Rattus norvegicus, UniProt P33535). Put plainly: Binding affinity against opioid receptor mu in rats by displacing [3H]-DAGO.

pKi: −log10 of the molar value.

Regarding `CC(C)[C@H](NC(=O)[C@H](CCC(=O)O)NC(=O)[C@H](Cc1ccccc1)NC(=O)[C@H](C)NC(=O)[C@@H](N)Cc1ccc(O)cc1)C(=O)N[C@H](C(=O)NCC(=O)O)C(C)C` [DELTORPHINE II], the pKi was 6.20.
